Test: in vivo
Conditions: mouse, oral, mice died within a week, probit method
Experimental: ddY male mice (body weight about 23 g) were fasted overnight, and the test compound dissolved or suspended in a 1% gum arabic solution administered orally. From the number of mice died within a week, the LD50 value was calculated by the probit method.

O=C([O-])c1ccccc1Nc1cc(Cl)ccc1C(=O)[O-].[Na+].[Na+] [Lobenzarit disodium, N-(2-carboxyphenyl)-4-chloroanthranilic acid disodium salt]
LD50 at 168 h: 593 mg/kg

Reference: US4910211A, “Novel benzothiazole and antirheumatic agent comprising it as an active ingredient” (Kanebo Ltd., priority 1987, dated 1990)
